From patent publication US20130130985A1

The chains behind the UniProt entries cited, without tags or fusion partners. Where a name states a change or a piece, a line headed by the entry shows the natural chain unless it says otherwise.
UniProt P30559: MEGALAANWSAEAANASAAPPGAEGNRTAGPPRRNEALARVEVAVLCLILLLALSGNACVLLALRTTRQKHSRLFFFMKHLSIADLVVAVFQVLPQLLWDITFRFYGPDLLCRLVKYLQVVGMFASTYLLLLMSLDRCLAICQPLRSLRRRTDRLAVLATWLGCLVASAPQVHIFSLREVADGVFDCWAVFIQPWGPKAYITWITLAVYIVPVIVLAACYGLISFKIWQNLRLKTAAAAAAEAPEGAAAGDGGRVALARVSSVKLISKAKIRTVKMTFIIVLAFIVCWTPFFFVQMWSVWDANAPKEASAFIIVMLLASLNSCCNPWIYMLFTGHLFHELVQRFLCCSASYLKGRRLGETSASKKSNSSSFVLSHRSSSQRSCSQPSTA
UniProt P37288, whole entry: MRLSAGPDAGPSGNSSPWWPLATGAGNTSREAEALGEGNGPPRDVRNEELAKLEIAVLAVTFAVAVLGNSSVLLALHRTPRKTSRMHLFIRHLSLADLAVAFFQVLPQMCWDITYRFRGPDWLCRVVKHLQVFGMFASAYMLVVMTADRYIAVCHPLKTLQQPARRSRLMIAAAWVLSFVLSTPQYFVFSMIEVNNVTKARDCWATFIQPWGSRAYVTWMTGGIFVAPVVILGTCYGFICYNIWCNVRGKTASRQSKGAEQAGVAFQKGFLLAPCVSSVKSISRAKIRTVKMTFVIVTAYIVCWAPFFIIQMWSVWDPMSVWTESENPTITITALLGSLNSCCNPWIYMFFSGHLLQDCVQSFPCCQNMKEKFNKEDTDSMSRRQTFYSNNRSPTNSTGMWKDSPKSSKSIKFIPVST

What was measured:
[1] = biological target: human oxytocin receptor (human) (UniProt P30559); assay: radioligand displacement (3H-OT), SPA beads, COS-1 membranes
[2] = biological target: human vasopressin V1a receptor (human) (UniProt P37288); assay: radioligand displacement (125I-V1a linear antagonist), SPA beads, COS-1 membranes
[3] = biological target: human oxytocin receptor (human) (UniProt P30559); assay: cell-based or functional assay
[4] = biological target: human vasopressin V1a receptor (human) (UniProt P37288); assay: cell-based or functional assay

IC50 [1]: 0.0031 µM | IC50 [2]: 0.0098 µM | EC50, IP-One HTRF assay [3]: 0.032 µM | EC50, IP-One HTRF assay [4]: 0.263 µM
Substance: [CH2-S]-OT (peptide)
